Values of other authors, collected in patent publication US6887897B2, “Calcium glutarate supplement and phosphorus binder” (Mission Pharmacal Company, priority 2001, dated 2005).

Conditions: cited from earlier work

Substance: Calcium gluconate
- solubility (in words): high solubilities
